Test [1] deals with U-87MG cells. It is filed as cell-based, human. The following applies: 24 h. As for the experimental part:
U-87MG (human glioblastoma; epithelial cells, ATCC: HTP-14) and PC-3 (human prostate adenocarcinoma; epithelial cells, ATCC: CRL-1435) were purchased from ATCC (Manassas, VA, USA). The cells were cultured in a humidified sterile incubator at 37 °C, with 5% CO2 in recommended growth medium supplemented with 10% FBS, 100 U/ml penicillin, and 100 μg/ml streptomycin. Mycoplasma contamination was routinely evaluated on cell lines. The cell lines were also authenticated by routine monitoring of cell morphology and proliferation and cultured up to 15 passages. Cells were seeded at a density of 1 × 10^5 cells per well in 12-well plates for apoptotic cell death analyses and at 2 × 10^5 cells per well in 6-well plates for protein and RNA extractions. After seeding, cells were incubated for 24 h at 37 °C in a humidified atmosphere containing 5% CO₂ in serum-free medium, in the absence or presence of the indicated peptide. Following treatment, cells were collected, centrifuged at 1500 × g for 5 min, washed with phosphate-buffered saline (PBS), and processed for the designated assays. Cells were analyzed for cell survival using an XTT assay, according to the manufacturer’s instructions. Briefly, the activation solution was added to the XTT solution, which is converted to orange formazan by mitochondrial dehydrogenases in live cells.

Test [2] relates to U-87MG cells. It is filed as cell-based. The following applies: 24 h, serum-free medium, PI staining, read-out: IC50, cell death.

Where two headings read alike, the source gives them in different places.

Compound `CSCC[C@H](NC(=O)[C@H](Cc1c[nH]cn1)NC(=O)[C@H](C)NC(=O)[C@H](CCSC)NC(=O)[C@H](CC(C)C)NC(=O)[C@H](CC(=O)O)NC(=O)[C@@H](NC(=O)[C@@H](NC(=O)[C@H](CCCNC(=N)N)NC(=O)[C@H](CC(N)=O)NC(=O)[C@H](CO)NC(=O)[C@H](Cc1ccc(O)cc1)NC(=O)CNC(=O)[C@H](Cc1ccccc1)NC(=O)[C@H](CCC(=O)O)NC(=O)[C@@H](N)CC(N)=O)C(C)C)C(C)C)C(=O)N[C@@H](C)C(=O)N[C@@H](CO)C(=O)N[C@@H](CCCCN)C(=O)N[C@@H](CCC(=O)O)C(=O)N[C@@H](CCCNC(=N)N)C(=O)N[C@H](CCCNC(=N)N)C(=O)N[C@@H](CCCNC(=N)N)C(=O)N[C@@H](CCCCN)C(=O)O` [2D1-Nuc] returned an IC50 in the test on U-87MG cells [1] of over 25 µM.

For `CC[C@H](C)[C@H](NC(=O)[C@H](CCC(N)=O)NC(=O)[C@H](CC(C)C)NC(=O)CNC(=O)[C@@H]1CCCN1C(=O)[C@H](CCC(=O)O)NC(=O)[C@H](CCCCN)NC(=O)CNC(=O)[C@H](C)NC(=O)[C@H](CCCCN)NC(=O)[C@H](CC(C)C)NC(=O)[C@H](Cc1ccccc1)NC(=O)[C@H](CCC(=O)O)NC(=O)[C@@H]1CCCN1C(=O)[C@H](Cc1c[nH]cn1)NC(=O)[C@H](CCC(=O)O)NC(=O)[C@@H](NC(=O)[C@@H](NC(=O)[C@@H](N)CCSC)C(C)C)C(C)C)C(=O)N[C@@H](Cc1c[nH]c2ccccc12)C(=O)N[C@@H](CCCNC(=N)N)C(=O)N[C@H](C(=O)N[C@@H](CCC(=O)O)C(=O)N[C@@H](CCCCN)C(=O)N[C@@H](Cc1ccccc1)C(=O)N[C@@H](CCCNC(=N)N)C(=O)N[C@@H](CCC(N)=O)C(=O)N[C@H](C(=O)N[C@@H](CCCCN)C(=O)N[C@H](C(=O)N[C@@H](Cc1c[nH]c2ccccc12)C(=O)N[C@@H](Cc1ccccc1)C(=O)N[C@@H](CCC(N)=O)C(=O)N[C@@H](CC(N)=O)C(=O)N[C@@H](CCCNC(=N)N)C(=O)N[C@@H](CCCNC(=N)N)C(=O)N[C@@H](CCSC)C(=O)N[C@@H](CCCCN)C(=O)N[C@@H](Cc1c[nH]c2ccccc12)C(=O)N[C@@H](CCCCN)C(=O)N[C@@H](CCCCN)C(=O)O)[C@@H](C)CC)[C@@H](C)CC)C(C)C` [2G8-Antp], the IC50 is over 100 µM in the test with U-87MG cells [1] (U-87MG, serum-free medium, 0-100 μM, read-out: IC50, cell viability analyzed by XTT) and 8 µM in the test on U-87MG cells [2].

`CC[C@H](C)[C@H](NC(=O)[C@H](CCC(N)=O)NC(=O)[C@H](CC(C)C)NC(=O)CNC(=O)[C@@H]1CCCN1C(=O)[C@H](CCC(=O)O)NC(=O)[C@H](CCCCN)NC(=O)CNC(=O)[C@H](C)NC(=O)[C@H](CCCCN)NC(=O)[C@H](CC(C)C)NC(=O)[C@H](Cc1ccccc1)NC(=O)[C@H](CCC(=O)O)NC(=O)[C@@H]1CCCN1C(=O)[C@H](Cc1c[nH]cn1)NC(=O)[C@H](CCC(=O)O)NC(=O)[C@@H](NC(=O)[C@@H](NC(=O)[C@H](CCSC)NC(=O)[C@H](CCCCN)NC(=O)[C@H](CCCCN)NC(=O)[C@H](Cc1c[nH]c2ccccc12)NC(=O)[C@H](CCCCN)NC(=O)[C@H](CCSC)NC(=O)[C@H](CCCNC(=N)N)NC(=O)[C@H](CCCNC(=N)N)NC(=O)[C@H](CC(N)=O)NC(=O)[C@H](CCC(N)=O)NC(=O)[C@H](Cc1ccccc1)NC(=O)[C@H](Cc1c[nH]c2ccccc12)NC(=O)[C@@H](NC(=O)[C@H](CCCCN)NC(=O)[C@@H](NC(=O)[C@H](CCC(N)=O)NC(=O)[C@@H](N)CCCNC(=N)N)[C@@H](C)CC)[C@@H](C)CC)C(C)C)C(C)C)C(=O)N[C@@H](Cc1c[nH]c2ccccc12)C(=O)N[C@@H](CCCNC(=N)N)C(=O)N[C@H](C(=O)N[C@@H](CCC(=O)O)C(=O)N[C@@H](CCCCN)C(=O)N[C@@H](Cc1ccccc1)C(=O)O)C(C)C` [Antp-2G8] showed an IC50 in the test on U-87MG cells [1] of over 100 µM.

The record behind these values is PMC12669278, “VDAC1-interacting proteins: binding site mapping and their derived peptides induce apoptosis and multifaceted cellular effects” (Apoptosis, 2025).
